Results published in article PMC12138102 (Acta Pharmaceutica Sinica. B, 2025).

Protein sequences, listed by entry. Tags and fused reporters are not part of them. Residues count along the entry.
UniProt P06276, 29-602: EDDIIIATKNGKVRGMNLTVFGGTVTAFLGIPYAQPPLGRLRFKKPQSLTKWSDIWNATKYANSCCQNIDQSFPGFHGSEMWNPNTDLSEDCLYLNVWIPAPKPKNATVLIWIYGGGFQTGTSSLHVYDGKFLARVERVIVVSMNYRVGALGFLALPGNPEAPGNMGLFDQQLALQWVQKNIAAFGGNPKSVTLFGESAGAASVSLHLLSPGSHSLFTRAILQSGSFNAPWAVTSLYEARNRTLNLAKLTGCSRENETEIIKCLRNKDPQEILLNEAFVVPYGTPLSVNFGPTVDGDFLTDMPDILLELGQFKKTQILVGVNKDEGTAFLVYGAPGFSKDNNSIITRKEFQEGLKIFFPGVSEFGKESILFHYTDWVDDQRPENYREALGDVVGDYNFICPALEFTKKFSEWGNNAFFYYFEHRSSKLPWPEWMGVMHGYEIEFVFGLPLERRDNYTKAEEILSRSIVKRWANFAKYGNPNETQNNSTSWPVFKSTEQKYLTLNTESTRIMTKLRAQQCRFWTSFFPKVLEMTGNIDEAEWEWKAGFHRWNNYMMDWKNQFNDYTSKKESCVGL

Target: huBuChE (Homo sapiens, UniProt P06276)
Experiment: BuChE inhibition, Ellman's assay
Type: biochemical
Conditions: read-out: IC50 ± SD huBuChE

## CCN(C)C(=O)Oc1cccc([C@H](C)N(C)C)c1 [Rivastigmine, reference compound]
  IC50: 6.2 ± 0.21 µM
